Measured values reported in paper PMC9949698, “Visible-Light-Controlled Histone Deacetylase Inhibitors for Targeted Cancer Therapy” (Journal of Medicinal Chemistry, 2023).

Test system: HeLa cells
Experiment: HeLa cell viability, MTS assay, dark or preillumination
Type: cell-based
Conditions: positive control
From the text: Given the promise of HDAC inhibitors to induce apoptosis to cancer cells, we proceeded to study the effects of the best analogues in HeLa cells. We first confirmed that representative compounds were able to inhibit HDACs in cells in a whole-cell HDAC assay, which accounts for activity against class 1 and 2b HDAC isoforms (Figure S22). We then proceeded to evaluate the effect of the compounds in a viability assay against HeLa cells. The compounds were either kept in the dark or illuminated before addition onto preseeded cells and then incubated for 24–48 h before the proportion of live cells was measured with an MTS assay.
HeLa, MCF7, and HT29 cells were maintained in adherent cultures in DMEM supplemented with 10% FBS. KG1 cells were maintained in a suspension culture in IMDM supplemented with 20% FBS.
Stock solutions of the compounds were heated to 60 or 80 °C to obtain solutions with the maximum amount of the trans isomer (dark). […]
Viability of HeLa, MCF7, and […] cells was determined with a CellTiter 96 assay (Promega), according to the manufacturer’s instructions. Briefly, 20 μL of CellTiter 96 reagent was added to each well, the plates were incubated at 37 °C for 2 h, and the absorbance at 490 nm was recorded. Viability is expressed as a percentage with respect to the nontreated cells.

Compound: O=C(CCCCCCC(=O)Nc1ccccc1)NO [SAHA, reference compound]
- effect on cells after treatment for 24 h: induced cell death
